Test results: patent US20090142280A1

Assays:
Test in all cases: cell-based or functional assay
[1] = biological target: chymotrypsin (Sigma-Aldrich)
elastase (Sigma-Aldrich) = biological target: elastase (Sigma-Aldrich)
[2] = biological target: kallikrein (Sigma-Aldrich)
urokinase = biological target: urokinase
trypsin (Sigma-Aldrich) = biological target: trypsin (Sigma-Aldrich)

aprotinin (Sigma-Aldrich) (from UniProt P00974 36-93)
Survival of HB64 (1 mg/mL) with chymotrypsin 25 µg/mL and aprotinin 0.02 mg/mL, LC/MS, Expt. 35 [1]: < 24 h
Survival of HB64 (1 mg/mL) with elastase 25 µg/mL and aprotinin 0.02 mg/mL, LC/MS, Expt. 23 (elastase (Sigma-Aldrich)): < 1 h
Survival of LL-37 (1 mg/mL) with kallikrein 22 µg/mL and aprotinin 0.02 mg/mL, LC/MS, Expt. 48 [2]: < 24 h
Survival of LL-37 (1 mg/mL) with urokinase 22 µg/mL and aprotinin 0.02 mg/mL, LC/MS, Expt. 52 (urokinase): > 24 h
Survival of HB64 (1 mg/mL) with trypsin 25 µg/mL and aprotinin 0.02 mg/mL, LC/MS, Expt. 5 (trypsin (Sigma-Aldrich)): > 24 h
Survival of HB168 (1 mg/mL) with trypsin 25 µg/mL and aprotinin 0.02 mg/mL, LC/MS, Expt. 7 (trypsin (Sigma-Aldrich)): > 24 h
Survival of HB1345 (1 mg/mL) with trypsin 25 µg/mL and aprotinin 0.02 mg/mL, LC/MS, Expt. 9 (trypsin (Sigma-Aldrich)): > 24 h
